Assay results published in PubChem BioAssay AID651640 (Broad Institute, 2012).
This is a selection; strong and weak results do not stand in their true shares. Results filed as inconclusive are left out. Activity calls are given as the source filed them. No stated cut-off is given here; in the data, active means CPE inhibition above about 20% (passing the limit was not always enough); inconclusive means no clear call, values can overlap the other calls; tested in BHK-21 cells.

Test: inhibitors of DENV2 cytopathic effect, primary screen, cell-based, plate reader, single concentration (AID 651640);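 further: 0% = median of neutral control wells and 100% = median of positive control wells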
Details: DENV2-infected cells, cytopathic effect rescue, at 9.99 µM, stronger effect = higher value
For CCC(=O)N(c1ccccc1)C1(COC)CCN(CCc2cccs2)CC1, the CPE inhibition was inactive: -0.97%.
With CCC(=O)N(c1ccccc1)C1(COC)CCN(CCn2nnn(CC)c2=O)CC1 the CPE inhibition was inactive: 9.39%.
